Data on four compounds can be found in BindingDB's records for doi:10.1021/bi0200514 (Merck Research Laboratories, 2002).

Sequences of proteins named here, by UniProt entry; tags and fusion partners are left off. A change or cut given only in a name is not applied to a line headed by its entry. A line that says so, or that is headed by a name, gives the form on record, which may keep a tag or linker.
UniProt Q969V1: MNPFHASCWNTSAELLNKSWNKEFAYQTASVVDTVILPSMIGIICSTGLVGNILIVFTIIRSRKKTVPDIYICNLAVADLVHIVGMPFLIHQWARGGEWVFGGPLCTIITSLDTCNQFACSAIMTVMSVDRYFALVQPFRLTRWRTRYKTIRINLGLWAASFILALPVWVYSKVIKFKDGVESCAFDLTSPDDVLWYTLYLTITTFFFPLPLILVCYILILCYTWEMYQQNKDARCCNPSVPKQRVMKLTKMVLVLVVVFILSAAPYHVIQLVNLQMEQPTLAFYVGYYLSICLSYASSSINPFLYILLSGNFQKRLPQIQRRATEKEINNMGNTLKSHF
UniProt Q99705, as listed by the source: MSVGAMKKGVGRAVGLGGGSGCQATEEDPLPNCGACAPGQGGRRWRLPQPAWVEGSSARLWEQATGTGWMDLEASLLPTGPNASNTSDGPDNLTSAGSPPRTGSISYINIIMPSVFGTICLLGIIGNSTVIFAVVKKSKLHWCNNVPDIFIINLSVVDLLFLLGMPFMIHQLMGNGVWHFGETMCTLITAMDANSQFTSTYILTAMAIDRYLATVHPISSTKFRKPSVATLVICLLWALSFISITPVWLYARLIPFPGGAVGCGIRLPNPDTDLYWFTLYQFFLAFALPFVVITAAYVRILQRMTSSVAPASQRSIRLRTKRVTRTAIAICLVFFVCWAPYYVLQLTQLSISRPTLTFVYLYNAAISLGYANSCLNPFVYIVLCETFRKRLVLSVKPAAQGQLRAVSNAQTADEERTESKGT

Several values for one entry are separate records, joined by “and”; a condition that tells them apart may be missing. Equal values may be shown once.

In experiment [1] the target is Melanin-concentrating hormone receptor 2 (Homo sapiens, UniProt Q969V1).
For experiment [2], the target named is Melanin-concentrating hormone receptor 1 (Homo sapiens, UniProt Q99705).

In the case of `CCCC[C@H]1C(=O)N[C@@H](CC(C)C)C(=O)NCC(=O)N[C@@H](CCCNC(=N)N)C(=O)N[C@@H](C(C)C)C(=O)N[C@@H](Cc2ccc(O)cc2)C(=O)N[C@@H](CCCNC(=N)N)C(=O)N2CCC[C@H]2C(=O)N[C@H](C(N)=O)CSSC[C@H](NC(=O)[C@H](CCCNC(=N)N)NC(C)=O)C(=O)N1C` [N-Me-Nle8], the inhibition constant (Ki) (in general, the equilibrium dissociation constant of an inhibitor or competing ligand from its target) was found to be 0.018 µM in experiment [1] and 0.00034 µM in experiment [2].
For `CSCC[C@@H]1NC(=O)[C@@H](NC(=O)CCCCN=C(N)N)CSSC[C@@H](C(N)=O)NC(=O)CCCCNC(=O)[C@H](Cc2ccc(O)cc2)NC(=O)[C@H](C(C)C)NC(=O)[C@H](CCCN=C(N)N)NC(=O)CNC(=O)[C@H](CC(C)C)NC1=O` [Gva6,betaAla14,15], the inhibition constant (Ki) in experiment [1] was 0.034 µM and 0.064 µM; in experiment [2] it was 0.014 µM and 0.053 µM.
Take `CSCC[C@@H]1NC(=O)[C@@H](NC(=O)CCCCNC(=N)N)CSSC[C@@H](C(N)=O)NC(=O)CNC(=O)CNC(=O)[C@H](Cc2ccc(O)cc2)NC(=O)[C@H](C(C)C)NC(=O)[C@H](CCCNC(=N)N)NC(=O)CNC(=O)[C@H](CC(C)C)NC1=O` [Gva6,Gly14,15]: the Ki was found to be 0.043 µM in experiment [1] and 0.067 µM in experiment [2].
Regarding `CSCC[C@@H]1NC(=O)[C@@H](NC(=O)[C@H](CCCNC(=N)N)NC(C)=O)CSSC[C@@H](C(N)=O)NC(=O)CCCCNC(=O)[C@H](Cc2ccc(O)cc2)NC(=O)[C@H](C(C)C)NC(=O)[C@H](CCCNC(=N)N)NC(=O)CCCCNC1=O` [Ava9,10,Ava14,15], the inhibition constant (Ki) in experiment [1] stood at 0.049 µM; in experiment [2], 0.065 µM.
